The text below walks through data of PMC5224920, “Assessing the mechanism and therapeutic potential of modulators of the human Mediator complex-associated protein kinases” (eLife, 2016).

By UniProt entry, the sequences of proteins in these tests, tags left out.
UniProt P49841, whole entry, species assumed: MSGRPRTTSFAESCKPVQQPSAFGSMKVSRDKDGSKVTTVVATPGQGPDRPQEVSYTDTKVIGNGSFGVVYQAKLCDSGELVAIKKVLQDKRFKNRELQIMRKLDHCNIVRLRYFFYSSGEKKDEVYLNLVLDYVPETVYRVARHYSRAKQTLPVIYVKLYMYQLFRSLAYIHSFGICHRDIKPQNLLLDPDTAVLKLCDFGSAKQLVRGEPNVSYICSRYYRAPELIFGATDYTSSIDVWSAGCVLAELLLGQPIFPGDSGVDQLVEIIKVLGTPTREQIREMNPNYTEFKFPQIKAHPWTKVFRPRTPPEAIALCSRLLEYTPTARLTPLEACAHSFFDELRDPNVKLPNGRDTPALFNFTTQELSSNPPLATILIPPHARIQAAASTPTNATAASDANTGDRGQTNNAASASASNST
UniProt Q04759, whole entry, species assumed: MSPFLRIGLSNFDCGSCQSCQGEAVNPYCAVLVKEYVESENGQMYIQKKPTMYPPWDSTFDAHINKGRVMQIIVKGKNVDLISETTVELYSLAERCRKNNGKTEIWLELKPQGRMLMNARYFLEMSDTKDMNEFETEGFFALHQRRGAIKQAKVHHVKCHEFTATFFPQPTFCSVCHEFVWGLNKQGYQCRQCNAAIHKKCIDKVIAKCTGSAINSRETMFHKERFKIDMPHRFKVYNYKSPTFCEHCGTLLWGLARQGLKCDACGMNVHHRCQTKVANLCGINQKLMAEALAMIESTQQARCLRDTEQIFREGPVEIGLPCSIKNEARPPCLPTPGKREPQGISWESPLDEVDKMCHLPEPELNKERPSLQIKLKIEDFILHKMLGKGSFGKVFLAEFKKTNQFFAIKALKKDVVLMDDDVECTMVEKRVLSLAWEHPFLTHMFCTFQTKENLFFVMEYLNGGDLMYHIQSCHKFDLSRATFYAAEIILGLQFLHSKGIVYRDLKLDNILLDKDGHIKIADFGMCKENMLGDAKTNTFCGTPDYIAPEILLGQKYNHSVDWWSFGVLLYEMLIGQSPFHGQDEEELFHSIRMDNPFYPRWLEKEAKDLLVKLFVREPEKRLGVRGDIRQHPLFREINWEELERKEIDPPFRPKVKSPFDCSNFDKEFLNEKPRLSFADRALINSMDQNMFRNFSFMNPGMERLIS

Where only a bound is given, the exact number is not on record here.

One assay deals with GSK3β (Homo sapiens, UniProt P49841). Put plainly: Off-target kinase IC50, GSK3β. In kind it is biochemical.
The next assay has as its target PRKCQ (Homo sapiens, UniProt Q04759). Put plainly: Off-target kinase IC50, PRKCQ. In kind it is biochemical.
Assay [1] has as its system COLO205. Put plainly: 24 hour TCF/LEF reporter assay, COLO205. The assay is classed as cell-based. The settings on record: Homo sapiens, COLO 205, 24 h, read-out: 24 hour TCF/LEF Reporter assay IC50. A general note: Reporter assays use an easily measured gene product as a stand-in for the process of interest.
In assay [2] the test system is DLD1. Put plainly: 24 hour TCF/LEF reporter assay, DLD1. The assay is classed as cell-based. The settings on record: Homo sapiens, DLD-1, 24 h, read-out: 24 hour TCF/LEF Reporter assay IC50.
Assay [3] concerns LS180. Put plainly: 24 hour TCF/LEF reporter assay, LS180. The assay is classed as cell-based. The settings on record: Homo sapiens, LS180, 24 h, read-out: 24 hour TCF/LEF Reporter assay IC50.
For assay [4], the system named is LS174T. Put plainly: 24 hour TCF/LEF reporter assay, LS174T. The assay is classed as cell-based. Particulars: Homo sapiens, read-out: 24 hour TCF/LEF Reporter assay IC50.
Assay [5] concerns RKO. Put plainly: 24 hour reporter assay, RKO negative control (EEF1A1 promoter-reporter). The assay is classed as cell-based. Particulars: Homo sapiens, read-out: 24 hour TCF/LEF Reporter assay IC50.
The subject of assay [6] is SW837. Put plainly: 24 hour TCF/LEF reporter assay, SW837. In kind it is cell-based. The settings on record: Homo sapiens, SW837, 24 h, read-out: 24 hour TCF/LEF Reporter assay IC50.
Assay [7] has as its system LS513 human colorectal cancer xenograft. Put plainly: LS513 human colorectal cancer xenograft, tumor growth inhibition. Particulars: 70 x 2 (3/7 d) and x 1 (2/7 d)b mg/kg x doses/day, day 17, P <0.001. In kind it is in vivo. As to the method: PDX experiments were conducted at Oncotest (Germany).
Assay [8] concerns HCT116 human colorectal cancer cell line xenografts. Put plainly: HCT116 human colorectal cancer xenograft, tumor growth inhibition. Particulars: 70 x 2 (5/7 d) mg/kg x doses/day, day 15, P <0.001. The assay is classed as in vivo.
Assay [9] concerns hyperplastic intestinal crypt stem and TA cells. Put plainly: In vivo stem cell analysis, Dox-inducible activated beta-catenin mice. On the set-up: species or system mouse. Particulars: 75 mg/kg x 3 over 24 hr. As to the method: In contrast, the gene expression in the TA fraction following treatment with 1 was similar to the effect of reducing the level of Dox from 2.0 to 0.1 mg/ml, but was different from the Dox withdrawal condition (Figure 5E). […] This implies that the inhibition of CDK8/19 by 1 reduces, rather than eliminates, WNT signaling in the oncogenically-activated stem cell compartment and it is this that alters the proportion of stem cells to proliferative TA cells in the hyperplastic crypt.
Crypt structures were isolated from inducible Tet-O-β-catenin mice following treatment regimes described in Figure 5—figure supplement 1 ([Jardé et al., 2013]). Mice were orally gavaged with 75 mg/kg 1 × 3 over 24 hr and doxycycline in drinking water supplemented with an i.p. dose of 0.1 mg/ml or 2.0 mg/ml doxycycline in PBS at time of gavage to maintain levels. Isolated crypts were dissociated into single cells, then resuspended in staining medium containing DAPI and the antibodies shown in Figure 5—source data 1.

Assay [10] has the same test system. On the set-up: method as in Dale et al., 2015. The settings on record: Dox-inducible activated beta-catenin mouse model; ref Dale et al., 2015; cited from earlier work.
In assay [11] the test system is RKO. Put plainly: 96 hour proliferation GI50, RKO. The settings on record: Homo sapiens, read-out: 96 hour GI50.
A further assay relates to HT29. Put plainly: 96 hour proliferation GI50, HT29. The settings on record: Homo sapiens, HT-29, 96 h, read-out: 96 hour GI50.
Assay [12] deals with DLD1. Put plainly: 96 hour proliferation GI50, DLD1. The settings on record: Homo sapiens, DLD-1, 96 h, read-out: 96 hour GI50.
In the next assay the test system is SW948. Put plainly: 96 hour proliferation GI50, SW948. Particulars: Homo sapiens, SW948, 96 h, read-out: 96 hour GI50.
The next assay relates to LS513. Put plainly: 96 hour proliferation GI50, LS513. Particulars: Homo sapiens, LS-513, 96 h, read-out: 96 hour GI50.
The test system of assay [13] is LS180. Put plainly: 96 hour proliferation GI50, LS180. The settings on record: Homo sapiens, LS180, 96 h, read-out: 96 hour GI50.
For the next assay, the system named is SW620. Put plainly: 96 hour proliferation GI50, SW620. Particulars: Homo sapiens, SW-620, 96 h, read-out: 96 hour GI50.
The test system of assay [14] is SW837. Put plainly: 96 hour proliferation GI50, SW837. The settings on record: Homo sapiens, SW837, 96 h, read-out: 96 hour GI50.
Assay [15] has as its system LS174T. Put plainly: 96 hour proliferation GI50, LS174T. Particulars: Homo sapiens, read-out: 96 hour GI50.
Assay [16] concerns COLO205. Put plainly: 96 hour proliferation GI50, COLO205. The settings on record: Homo sapiens, COLO 205, 96 h, read-out: 96 hour GI50.
Assay [17] relates to LS174T. Put plainly: LS174T basal WNT-pathway luciferase reporter. The settings on record: Homo sapiens, read-out: LS174T IC50.
A further assay relates to p-STAT1^SER727. Put plainly: Inhibition of STAT1 SER727 phosphorylation in cells (target-engagement biomarker). The settings on record: read-out: p-STAT1^SER727 IC50.

On to `Cn1cc(-c2ccc(-c3cncc(Cl)c3N3CCC4(CCNC4=O)CC3)cc2)cn1` [CMPD 1], for which the IC50 at GSK3β came to 690 nM; at PRKCQ it was 122 nM; in the assay with COLO205 [1] it was 19 nM; with DLD1 [2] it was 54 nM; with LS180 [3], 25 nM; in the assay on LS174T [4] it was 34 nM. In addition, the IC50 was more than 30000 nM in the assay with RKO [5], 17 nM in the assay with SW837 [6], 23.1 ± 10.9 nM with LS174T [17] and 23.3 ± 14.8 nM in the assay with p-STAT1^SER727. In addition, the inhibition of tumour growth (TGI) (commonly how far tumour growth fell short of that in controls) in assay [7] is recorded as 81%; in [8], 60%. In assay [9], the “Crypt cell population distribution (stem vs TA cells)” value is on record as “shift in the population distribution from stem cell to TA”. In [10], the “Dose sufficient to inhibit WNT signaling” value is on record as more than 37.5 mg/kg. In addition, the GI50 with RKO [11], in the assay with HT29, in the assay with DLD1 [12], in the assay with SW948, in the assay with LS513 and with LS180 [13] was more than 30000 nM in each case. The concentration for 50% growth inhibition (GI50) (in general, the concentration that inhibits growth by half) in the assay on SW620 was more than 30000 nM; with SW837 [14], 6800 nM; in the assay with LS174T [15], more than 30000 nM; with COLO205 [16] it was more than 30000 nM.
